From patent US20220346381A1, “COMPOSITION FOR PREVENTING THE FORMATION OF SEEDS IN FRUIT” (ASOCIACION CLUB DE VARIEDADES VEGETALES PROTEGIDAS, priority 2019, published 2022) come the findings set out here.

This is a selection: effects in other tests are not listed, and their absence says nothing.

The subject of this assay is Nadorcott variety (mandarin). Kind of assay: Treatment of entire trees, number of seeds in the fruit. It is filed as in vivo. The note with it: about 120 fruits per treatment, positive control C+ 3.3.

As to ammonium nitrate, the “mean number of seeds in the fruit” value came to 2.876.
